Data from patent US5440016A, “Peptides of the formula (KFmoc) ZZZ and their uses” (priority 1993, dated 1995).

Tested on: Human red blood cells (RBCs)
Assay: Hemolytic activity
Type: cell-based
Settings: Tables 18-21
Description: Each assay was carried out in 96-well culture tissue plates. Four wells per plate contain 125 μl of a non-peptide positive control (1% Triton in de-ionized water), and four wells per plate contain 125 μl of a control blank, phosphate buffered saline (PBS). The hemolytic peptide melittin was used as comparative control. The controls served to detect possible contamination and to calculate the percent hemolysis of each peptide. Human red blood cells (RBCs) were washed with PBS and centrifuged to separate them from the serum. The cells were then resuspended in PBS to a final suspension of 0.5% RBC. 125 μl of this suspension was added to the peptides and controls solution. The release of hemoglobin resulting from the cell lysis was determined by measuring the OD at 414 nm of 100 μl of the supernatant.

Row | Substance | HD50 (concentration necessary to lyse 50% of the cells) [µg/mL]
1 | (KFmoc)ci(Cys[ACM])-NH2 | 84
2 | (KFmoc)ci(Thiopro)-NH2 | 58
